{"source": "patent US11510962B2", "about": "“Manufacture of degarelix” (Ferring B.V., priority 2012, dated 2022)", "experiment": "Reconstitution of degarelix vials with WFI/surfactant solution: OD (absorbance) at 350 nm", "assay_type": "physicochemical", "conditions": "vials reconstituted to 60 mg/ml degarelix, surfactant 1 mg/ml (0.1%) in WFI, 30 min, 60 min, 120 min, 24 hours", "experimental": "Procedure: • Degarelix batch reconstituted using WFI (as control) and using WFI containing the surfactants. The vials are reconstituted to 60 mg/ml degarelix."}
{"substance": "Tocopheryl-polyethylene-glycol-1000-succinate [TPCG]", "values": [{"measurement": "optical density versus control", "result": "reduced the optical density to a level below the control"}]}
